# AlphaSeq binding of Ab-14 heavy chain variants to a spike HR2 peptide

All variants were tested on one target, the spike HR2 peptide PDVDLGDISGINAS (SARS-CoV-2).

Parent: Ab-14, a human scFv built as VH, a 15-residue (Gly4Ser)3 linker, VL. Only the CDRs of the heavy chain vary.
VH: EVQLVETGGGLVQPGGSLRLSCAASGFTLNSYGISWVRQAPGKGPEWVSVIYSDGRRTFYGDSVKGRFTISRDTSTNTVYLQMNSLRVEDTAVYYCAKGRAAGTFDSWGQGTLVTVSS
VL: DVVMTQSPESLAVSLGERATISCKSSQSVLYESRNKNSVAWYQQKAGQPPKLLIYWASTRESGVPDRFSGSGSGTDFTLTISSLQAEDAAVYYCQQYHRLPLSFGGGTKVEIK

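The starting antibody came from a phage panning campaign against this peptide. Library AAYL49 holds single substitutions and randomly drawn double and triple substitutions in the CDRs. The scFvs were displayed on barcoded MATa yeast, the peptide on MATalpha yeast. After mating in shaken culture at 30 °C for 16 h, diploids were selected and their barcode pairs sequenced. Each replicate has its own calibration line, from reference interactions of the BCL2 family. Each pool was mated in three replicate cultures.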

The parent's heavy chain CDRs are GFTLNSYGIS, VIYSDGRRTFYGDSVK, GRAAGTFDS; each variant's own CDRs replace them letter for letter. Scale: log10 of Kd in nM, estimated from mating counts; low values are strong binders. "nd" means that the variant was in the library but no mating with the target was seen in that replicate; the authors take this as a sign of poor binding, and no number exists.

| # | CDR-H1 | CDR-H2 | CDR-H3 | log10 Kd (nM) by replicate | control signals |
|---|---|---|---|---|---|
| 1 | GRILNSYGIS | DIYSDGRRTFYGDSVK | GRAAGTFDS | nd nd nd | 5/9 (4.00) |
| 2 | GFTLNGYGIS | CIYSDGRRTFYGDSVK | GRAWGTFDS | nd nd nd | 1/9 (4.64) |
| 3 | GFTLNSYGIS | VIYSEGRITFYGSSVK | GRAAGTFDS | nd nd nd | 1/9 (2.22) |
| 4 | GFTLNSYGIS | VIYSDGRRTFYGDSEK | GRAAGTFDS | nd nd nd | 0/9 |
| 5 | GFTLNSYGIS | VIYSDRRRTFYGFSVK | GRAAGTFIS | 3.86 nd nd | 4/9 (4.27) |
| 6 | GFTLNSYGPS | AIYSDGRRTFYGDSVK | GRAHGTFDS | nd nd 5.17 | 1/9 (4.53) |
| 7 | GPTLNSYGIS | VIYSDGRRTHYGDMVK | GRAAGTFDS | nd 2.00 nd | 2/9 (3.61) |
| 8 | GFTLNSYQIS | VIYSDGRRTFRADSVK | GRAAGTFDS | nd nd nd | 0/9 |
| 9 | GFTFNSYGIS | VIYSHGRRTFYGDSVK | GRAAGTFDS | 4.95 nd nd | 4/9 (3.98) |
| 10 | EFTLNSYGIS | LAYSDGRRTFYGDSVK | GRAAGTFDS | nd nd nd | 0/9 |
| 11 | GRTLNSYGIS | VHYSDGRRTFYPDSVK | GRAAGTFDS | nd nd nd | 0/9 |
| 12 | GFTLNSYGIS | VIYSYGRRTKYGDSVK | GRATGTFDS | nd nd 4.73 | 3/9 (3.16) |
| 13 | GFTLNSYGIS | VIYSDINRTFYGDSVK | GRCAGTFDS | nd nd nd | 1/9 (3.92) |
| 14 | GFTLNSYGIS | VIYSDVRRTNYGDSVK | NRAAGTFDS | nd 4.09 nd | 1/9 (4.42) |
| 15 | GFTLNSYGIS | VIDSDGRRTEYGDSVK | GRAAGTFES | 5.75 3.26 nd | 6/9 (3.96) |
| 16 | GFTLNWYGIS | VIYSDGRRTFYGDSVK | GDAAATFDS | 2.44 nd nd | 1/9 (2.58) |
| 17 | GFTLNSYGIF | VIYQDGRRTFYGDSVK | GRAAGTCDS | nd 4.06 nd | 5/9 (4.39) |
| 18 | TFTLNSYGIS | VIYSDGRRTFYGYSVK | GRAAMTFDS | nd 4.10 3.11 | 3/9 (4.16) |
| 19 | GFTLNSCGIS | VIYSDGRRTFYGDSVK | GRAAGTFDS | 2.19 1.74 1.81 | 1/9 (3.26) |
| 20 | GFTLNSYGIS | VIYSDGRDTFTGDSVK | GGAAGTFDS | nd nd nd | 1/9 (2.85) |
| 21 | GFTLNSYGIS | MIYSTGRRTTYGDSVK | GRAAGTFDS | nd nd nd | 1/9 (2.40) |
| 22 | GFTLNSYGIS | TIYSDGYRTFEGDSVK | GRAAGTFDS | nd nd nd | 1/9 (4.17) |
| 23 | DFTLNSIGIS | VIYVDGRRTFYGDSVK | GRAAGTFDS | nd nd nd | 0/9 |
| 24 | GFTLNAYGIS | VIYSDGRRTFYGFSVK | GRAAGLFDS | nd nd nd | 0/9 |
| 25 | GFTLNSCGIS | HIYSDGRRTFYGASVK | GRAAGTFDS | nd 4.67 nd | 3/9 (3.61) |
| 26 | GPTLNSYGIS | VIYSDGRRTFVQDSVK | GRAAGTFDS | 3.27 2.55 2.63 | 3/9 (3.61) |
| 27 | GFTLSSYGIS | VIYSDGRRTFYGDSVK | GRAAGTFYQ | 2.67 nd nd | 1/9 (2.41) |
| 28 | GFTTNSYGIS | VIYSDGRRTFYGDSVK | GRRAGTFDE | nd nd 3.69 | 1/9 (4.26) |
| 29 | GFTLNSYCIS | VIYSDGTRTFYGDQVK | GRAAGTFDS | nd nd nd | 0/9 |
| 30 | GFTLNSYGIS | VIYSDGRMPFYGDSVK | GRAAGTFDS | nd 3.62 3.81 | 4/9 (4.38) |
| 31 | GFTLNGYFIS | VIYSDGRRTFYGDSVK | PRAAGTFDS | nd 4.04 nd | 2/9 (3.54) |
| 32 | GFTLNSYGIS | VIYSDGRRTFFGDSYK | GRAAGTLDS | nd nd nd | 0/9 |
| 33 | TFTLNEYGIS | VIYKDGRRTFYGDSVK | GRAAGTFDS | nd nd nd | 2/9 (4.83) |
| 34 | GFTLNDYGIS | VIYSDGRRTFYGDSVK | GRAALTFIS | -0.44 0.13 -0.20 | 0/9 |
| 35 | GFTLNSYTIS | VIYSDGRRTFYGDSVK | IRAALTFDS | nd nd 4.91 | 1/9 (3.26) |
| 36 | GFTLNSYGIS | VIYSDWRRTFYGFSVK | GDAAGTFDS | nd 3.37 nd | 0/9 |
| 37 | GFTLNSHGII | VIYSDGRRTFYGDSVK | GRAAGTFDS | 3.97 nd nd | 2/9 (4.20) |
| 38 | GFQLNSYGIS | VIYSDGQRTFYGDSVK | GRAMGTFDS | 0.26 0.61 0.57 | 0/9 |
| 39 | GDTLNDYGIS | VIYSDGRRTFYGDSVK | GRAAGTFSS | 3.06 4.91 3.20 | 3/9 (3.28) |
| 40 | GWTLNSYGIS | VIYSDGRRTFYGDSVK | GRKAGTFDS | 4.77 4.34 nd | 6/9 (4.67) |
| 41 | GCTLNSYDIS | VIYSDGRRTFYGDSVK | GRAAGTFWS | nd nd nd | 1/9 (2.02) |
| 42 | AFTLNSYWIS | VIYSDGTRTFYGDSVK | GRAAGTFDS | nd nd nd | 1/9 (3.74) |
| 43 | GFTLNSYGIS | VIYMFGRRTFYGDSVK | GRAAGTFDS | nd nd 5.22 | 1/9 (4.10) |
| 44 | GETLNSYGIS | VIYSDGRRTFGGDSVK | GSAAGTFDS | nd nd nd | 0/9 |

Excerpt, the final 4 entries:

| CDR-H1 | CDR-H2 | CDR-H3 | log10 Kd (nM) by replicate | control signals |
|---|---|---|---|---|
| GCTLNSYDIS | VIYSDGRRTFYGDSVK | GRAAGTFWS | nd nd nd | 1/9 (2.02) |
| AFTLNSYWIS | VIYSDGTRTFYGDSVK | GRAAGTFDS | nd nd nd | 1/9 (3.74) |
| GFTLNSYGIS | VIYMFGRRTFYGDSVK | GRAAGTFDS | nd nd 5.22 | 1/9 (4.10) |
| GETLNSYGIS | VIYSDGRRTFGGDSVK | GSAAGTFDS | nd nd nd | 0/9 |

Background: pairings of library AAYL49 with three empty control strains gave a value in 15% of cases (median 4.06, 5th percentile 2.83). Values in that range, when seen in few replicates, are hard to tell from nonspecific mating. Also given: how often the same scFv was detected with the empty control strains, with their mean in brackets. Parent in this assay: reference entry 0.65, copy in this library 4.11 (one replicate of three).

The measurements come from Engelhart et al. 2022 (doi:10.1038/s41597-022-01779-4) through the FLAb antibody collection.